The target in this experiment is DYRK1A (Rattus norvegicus, UniProt Q63470). The experiment can be described thus: DYRK1A in vitro kinase assay (33P-ATP, Woodtide substrate). The experiment is classed as biochemical. On the procedure:
Buffer A: MgCl2 (10 mM), 1 mM ethylene glycol-bis(2-aminoethylether)-N,N,N',N'-tetraacetic acid (EGTA), 1 mM dithiothreitol (DTT), 25 mM Tris-HCl pH 7.5, 50 μg heparin/mL.
Controls were performed with appropriate dilutions of dimethylsulfoxide (DMSO). IC50 values were calculated from dose-response curves established by Sigma-Plots. The GSK-3, CK1, DYRK1A and CLK1 peptide substrates were obtained from Proteogenix (Oberhausbergen, France).
CDK5/p25. (Human, recombinant) was prepared as previously described. […] ATP (3000 Ci/mmol; 10 mCi/mL) in a final volume of 30 μL. After 30 min incubation at 30 °C, 25 μL aliquots of supernatant were spotted onto sheets of Whatman P81 phosphocellulose paper, and 20 s later, the filters were washed eight times (for at least 5 min each time) in a solution of 10 mL phosphoric acid/L of water. The wet filters were counted in the presence of 1 mL ACS (Amersham) scintillation fluid.

Structures are written as SMILES.

With `COC(=N)c1nc2ccc3ncnc(Nc4ccc(OC)cc4)c3c2s1` [Compound 7i, Methyl 9-(4-methoxyphenylamino)thiazolo[5,4-f]quinazoline-2-carbimidate], it took 0.04 µM to reach half-maximal inhibition (IC50).

Take `COC(=N)c1nc2ccc3ncnc(Nc4ccc(Br)cc4F)c3c2s1` [Compound 9i, Methyl 9-(4-bromo-2-fluorophenylamino)thiazolo[5,4-f]quinazoline-2-carbimidate]: the half-maximal inhibitory concentration (IC50) (commonly the concentration that inhibits the measured activity by half) is 0.05 µM.

The values are drawn from PMC6270991, “Design and Synthesis of Thiazolo[5,4-f]quinazolines as DYRK1A Inhibitors, Part I” (Molecules, 2014).
